By UniProt entry, the sequences of proteins in these tests, tags left out. Where a name states a change or a piece, a line headed by the entry shows the natural chain unless it says otherwise. Residues count along the entry.
UniProt P28223, whole entry: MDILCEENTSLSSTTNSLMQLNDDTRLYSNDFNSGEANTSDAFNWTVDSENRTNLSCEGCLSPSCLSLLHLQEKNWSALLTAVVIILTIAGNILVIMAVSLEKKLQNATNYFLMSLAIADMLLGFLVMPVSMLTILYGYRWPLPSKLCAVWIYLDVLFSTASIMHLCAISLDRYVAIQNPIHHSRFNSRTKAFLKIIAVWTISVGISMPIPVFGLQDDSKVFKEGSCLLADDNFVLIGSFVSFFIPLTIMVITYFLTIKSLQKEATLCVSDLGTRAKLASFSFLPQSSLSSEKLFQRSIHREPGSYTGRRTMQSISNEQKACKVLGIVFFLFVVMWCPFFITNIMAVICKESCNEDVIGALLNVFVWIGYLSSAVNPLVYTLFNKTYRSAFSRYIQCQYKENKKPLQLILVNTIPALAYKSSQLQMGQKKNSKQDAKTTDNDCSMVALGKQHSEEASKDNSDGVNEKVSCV
UniProt P28335, 33-458 limits assumed: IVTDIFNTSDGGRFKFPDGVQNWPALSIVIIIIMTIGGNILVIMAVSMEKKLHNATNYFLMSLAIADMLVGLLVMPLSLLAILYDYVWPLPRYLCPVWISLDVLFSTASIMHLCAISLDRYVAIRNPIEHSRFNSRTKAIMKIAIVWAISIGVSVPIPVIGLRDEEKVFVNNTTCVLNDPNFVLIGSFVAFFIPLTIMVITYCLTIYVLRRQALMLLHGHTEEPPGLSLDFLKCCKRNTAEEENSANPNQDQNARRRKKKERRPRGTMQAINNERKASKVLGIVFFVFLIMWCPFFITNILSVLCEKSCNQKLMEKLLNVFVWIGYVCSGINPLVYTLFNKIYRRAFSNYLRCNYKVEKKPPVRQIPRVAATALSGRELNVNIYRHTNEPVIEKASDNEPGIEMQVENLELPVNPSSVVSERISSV
UniProt P14416, whole entry: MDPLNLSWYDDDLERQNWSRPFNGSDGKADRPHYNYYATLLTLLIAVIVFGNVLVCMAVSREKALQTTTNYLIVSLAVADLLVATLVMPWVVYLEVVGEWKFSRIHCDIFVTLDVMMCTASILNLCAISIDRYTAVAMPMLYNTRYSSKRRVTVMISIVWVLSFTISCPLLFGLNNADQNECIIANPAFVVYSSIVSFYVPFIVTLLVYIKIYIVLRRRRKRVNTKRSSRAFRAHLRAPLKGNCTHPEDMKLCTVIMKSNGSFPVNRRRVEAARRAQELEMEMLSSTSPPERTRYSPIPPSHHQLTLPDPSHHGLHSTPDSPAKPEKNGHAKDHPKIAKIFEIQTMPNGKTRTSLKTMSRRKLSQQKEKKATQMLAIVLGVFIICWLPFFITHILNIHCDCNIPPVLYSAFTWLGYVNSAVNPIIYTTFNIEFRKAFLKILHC
UniProt Q63380, 1-617: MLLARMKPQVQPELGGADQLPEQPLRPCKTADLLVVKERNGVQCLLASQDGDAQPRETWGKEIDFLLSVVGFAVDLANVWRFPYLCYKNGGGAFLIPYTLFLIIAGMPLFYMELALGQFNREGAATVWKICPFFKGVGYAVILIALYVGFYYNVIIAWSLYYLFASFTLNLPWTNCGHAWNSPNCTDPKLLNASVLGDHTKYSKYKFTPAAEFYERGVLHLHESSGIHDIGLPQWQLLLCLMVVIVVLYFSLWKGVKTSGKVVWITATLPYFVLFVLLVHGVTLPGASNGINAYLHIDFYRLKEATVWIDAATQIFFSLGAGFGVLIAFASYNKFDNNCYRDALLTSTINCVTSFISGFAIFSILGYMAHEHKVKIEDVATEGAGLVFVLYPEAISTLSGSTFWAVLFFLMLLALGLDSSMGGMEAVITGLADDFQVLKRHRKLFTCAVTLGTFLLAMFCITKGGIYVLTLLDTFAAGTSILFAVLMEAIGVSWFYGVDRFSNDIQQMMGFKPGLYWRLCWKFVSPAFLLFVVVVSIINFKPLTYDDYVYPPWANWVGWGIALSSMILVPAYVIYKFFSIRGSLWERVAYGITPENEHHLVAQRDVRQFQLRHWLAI

According to patent US20070197525A1, “Novel tetracyclic tetrahydrofuran derivatives” (priority 2004, published 2007):

What was measured:
[1] = biological target: human cloned 5-HT2A receptor (Homo sapiens, UniProt P28223); test: In vitro binding affinity for 5-HT2A receptor (radioligand binding); details: human cloned 5-HT2A receptor expressed in L929 cells, [125I]R91150 radioligand
Procedure: (§1) The interaction of the compounds of Formula (I) with 5-HT2A and 5-HT2C receptors was assessed in in vitro radioligand binding experiments. In general, a low concentration of a radioligand with a high binding affinity for the receptor is incubated with a sample of a tissue preparation enriched in a particular receptor (1 to 5 mg tissue) in a buffered medium (0.2 to 5 ml). During the incubation, the radioligands bind to the receptor. When equilibrium of binding is reached, the receptor bound radioactivity is separated from the non-bound radioactivity, and the receptor bound activity is counted. The interaction of the test compounds with the receptors is assessed in competition binding experiments. Various concentrations of the test compound are added to the incubation mixture containing the tissue preparation and the radioligand. Binding of the radioligand will be inhibited by the test compound in proportion to its binding affinity and its concentration. The affinities of the compounds for the 5-HT2 receptors were measured by means of radioligand binding studies conducted with: (a) human cloned 5-HT2A receptor, expressed in L929 cells using [^125I]R91150 as radioligand and (b) human cloned 5-HT2C receptor, expressed in CHO cells using [^3H]mesulergine as radioligand.

[2] = biological target: human cloned 5-HT2C receptor (Homo sapiens, UniProt P28335); test: In vitro binding affinity for 5-HT2C receptor (radioligand binding); details: human cloned 5-HT2C receptor expressed in CHO cells, [3H]mesulergine radioligand
Procedure: as §1

[3] = biological target: human dopamine D2L receptor (Homo sapiens, UniProt P14416); test: In vitro assay for D2 receptor binding; details: for D2 (pIC50): membranes of human D2L-transfected CHO cells, [3H]Spiperone radioligand; for D2/NET: ratio of D2 pIC50 to NET-inhibition pIC50
Procedure: Frozen membranes of human dopamine D2L receptor-transfected CHO cells were thawed, briefly homogenised using an Ultra-Turrax T25 homogeniser and diluted in Tris-HCl assay buffer containing NaCl, CaCl2, MgCl2, KCl (50, 120, 2, 1, and 5 mM respectively, adjusted to pH 7.7 with HCl) to an appropriate protein concentration optimised for specific and non-specific binding. Radioligand [^3H]Spiperone (NEN, specific activity ˜70 Ci/mmol) was diluted in assay buffer at a concentration of 2 nmol/L. Prepared radioligand (50 μl), along with 50 μl of either the 10% DMSO control, Butaclamol (10^−6 mol/l final concentration), or compound of interest, was then incubated (30 min, 37° C.) with 400 μl of the prepared membrane solution. Membrane-bound activity was filtered through a Packard Filtermate harvester onto GF/B Unifilterplates and washed with ice-cold Tris-HCl buffer (50 mM; pH 7.7; 6×0.5 ml). Filters were allowed to dry before adding scintillation fluid and counting in a Topcount scintillation counter. Percentage specific bound and competition binding curves were calculated using S-Plus software (Insightful).

[4] = biological target: norepinephrine transporter (NET) (Rattus norvegicus, UniProt Q63380); test: In vitro assay for NET inhibition (radioligand binding, rat brain cortex); details: rat brain cortex membranes, [3H]Nixosetine radioligand
[5] = Metabolic stability assay using human liver microsomes; details: 5.0 μM test compound, 15 min incubation, LC-MS
Procedure: Compounds according to the invention were tested for metabolic stability in the following assay using human liver microsomes in comparison with prior art compound A, referred to above.
Sub-cellular tissue preparations are made by centrifugal separation after mechanical homogenization of tissue. Tissue is rinsed in ice cold 0.1 M Tris-HCl (pH 7.4) buffer to wash excess blood. Tissue is then blotted dry, weighed and chopped coarsely using surgical scissors. The tissue pieces are homogenized in 3 volumes of ice cold 0.1 M phosphate buffer (pH 7.4) for 7×10 sec. The vessel is kept in/on ice during the homogenization process. Tissue homogenates are centrifuged at 9000×g for 20 minutes at 4° C. The resulting supernatant can be stored at −80° C. and is designated ‘S9’.
The S9-fraction may be centrifuged at 100.000×g for 60 minutes (4° C.). The resulting supernatant is aspirated, aliquoted and designated ‘cytosol’. The pellet is re-suspended in 0.1 M phosphate buffer (pH 7.4) in a final volume of 1 mL per 0.5 g original tissue weight and designated ‘microsomes’.
The incubation is carried out in the following system:
• The reaction is started by the addition of 0.8 mM NADP and incubated for 15 min. • Total assay volume is 250 microliters. • The reaction is stopped by the addition of 2 volumes of DMSO (or acetonitrile). • The samples are centrifuged (10 min, 900×g) and supernatant stored at room temperature (when stopped with DMSO; no longer than 24 h) or −20° C. (when stopped with acetonitrile; no longer than 24 h) before analysis. • The supernatant material is then analysed by LC-MS to determine the extent of metabolism of the test compound in the microsomes

NC[C@H]1C[C@@H]2c3ccccc3[C@H](O)c3ccc(F)cc3[C@H]2O1
5-HT2A (pIC50) [1]: 8.0
5-HT2C (pIC50) [2]: 8.4
D2 (pIC50) [3]: 5.2
D2/NET [3]: 0.92
NET-inhibition (pIC50) [4]: 5.6

C[C@@H]1c2ccccc2[C@H]2C[C@H](CN(C)C)O[C@@H]2c2ccccc21
5-HT2A (pIC50) [1]: 6.9
5-HT2C (pIC50) [2]: 7.8
D2 (pIC50) [3]: 5.9
D2/NET [3]: 0.73
NET-inhibition (pIC50) [4]: 8.0
% metabolised [5]: 8%

C[C@]1(O)c2ccccc2[C@H]2C[C@H](CN)O[C@@H]2c2cc(F)ccc21
5-HT2C (pIC50) [2]: 8.1
D2 (pIC50) [3]: <5
D2/NET [3]: <0.77
NET-inhibition (pIC50) [4]: 6.4

CNC[C@H]1C[C@@H]2c3ccccc3Cc3ccc(F)cc3[C@H]2O1 (relative stereo)
5-HT2A (pIC50) [1]: 8.9
5-HT2C (pIC50) [2]: 9.2
D2 (pIC50) [3]: 7.5
D2/NET [3]: 0.96
NET-inhibition (pIC50) [4]: 7.8
% metabolised [5]: 21.85%

C[C@H]1c2ccccc2[C@H]2C[C@H](CN(C)C)O[C@@H]2c2ccccc21
5-HT2A (pIC50) [1]: 7.9
5-HT2C (pIC50) [2]: 8.5
D2 (pIC50) [3]: 6.9
D2/NET [3]: 0.94
NET-inhibition (pIC50) [4]: 7.3
% metabolised [5]: 13.5%
